# Measured melting point values of organic chemicals

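OPERA's authors assembled the values from existing databases and did not measure them anew. A listed value is a point estimate from one report or more. Method, purity and exact conditions of the single measurements are not given. The measured form (salt, isomer or mixture) is not always the one drawn. Unmarked limits or estimates from the upstream databases cannot be ruled out.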

The melting point is given in degrees Celsius.
The databases behind each value are named after "via".

- N#CCc1csc(-c2ccccc2)n1 [(2-Phenyl-1,3-thiazol-4-yl)acetonitrile]: mp 58 °C (via OCHEM)
- Cc1ccc(-c2csc(N)n2)o1 [4-(5-methylfuran-2-yl)thiazol-2-amine]: mp 103 °C (via OCHEM)
- O=Cc1cn(-c2ccccc2)nc1-c1cccnc1 [1-Phenyl-3-(pyridin-3-yl)-1H-pyrazole-4-carbaldehyde]: mp 111 °C (via OCHEM)
- CSc1nn2ccccc2c1[N+](=O)[O-] [2-(Methylsulfanyl)-3-nitropyrazolo[1,5-a]pyridine]: mp 224 °C (via eChemPortal)
- CC(C)Oc1ccc(C(=O)NN)cc1 [4-isopropoxybenzohydrazide]: mp 118 °C (via OCHEM)
- CC(C)(C)n1ncc(C(=O)O)c1C(F)(F)F: mp 111 °C (via OCHEM)
- c1coc(Cc2ccco2)c1 [Furan, 2,2'-methylenebis-]: mp -26 °C (via PubChem)
- O=C(O)CNC(=O)c1cccs1 [[(Thiophene-2-carbonyl)-amino]-acetic acid]: mp 170 °C (via OCHEM)
- OCCCCC(O)CO (stereo not given) [1,2,6-Hexanetriol]: mp -26.5 °C (via OCHEM, eChemPortal)
- CC1(C)Nc2ccccc2NC1=O [3,3-dimethyl-3,4-dihydroquinoxalin-2(1H)-one]: mp 180 °C (via OCHEM)
- O=C(O)c1ccc(S(=O)(=O)C(F)F)cc1 [4-(Difluoromethanesulfonyl)benzoic acid]: mp 233 °C (via OCHEM)
- COC(=O)C(C(=O)OC)c1ccc(C(F)(F)F)cc1[N+](=O)[O-] [Dimethyl [2-nitro-4-(trifluoromethyl)phenyl]propanedioate]: mp 64 °C (via OCHEM)
- CN(C)Cc1ccc(C(=O)NN)o1 [5-[(dimethylamino)methyl]-2-furohydrazide]: mp 117 °C (via OCHEM)
- O=Cc1cnc(N2CCOCC2)nc1 [2-Morpholin-4-yl-pyrimidine-5-carbaldehyde]: mp 148 °C (via OCHEM)
- COc1ccc(S(=O)(=O)NCC(=O)O)cc1 [(4-Methoxy-benzenesulfonylamino)-acetic acid]: mp 132 °C (via OCHEM)
- CC(=O)CC(=O)Nc1cccc(C)c1 [N-(3-methylphenyl)-3-oxobutanamide]: mp 58 °C (via OCHEM)
- O=C1C=CC(=O)N1c1cc(Cl)cc(Cl)c1 [N-(3,5-Dichlorophenyl)maleimide]: mp 140 °C (via OCHEM)
- O=S(=O)([O-])CC(O)C[n+]1ccccc1 (stereo not given) [1-(2-Hydroxy-3-sulphonatopropyl)pyridinium]: mp 245.4 °C (via eChemPortal)
- CCCCCCCCCCCCCCCC(=O)Nc1cc(Cl)c(CC)c(Cl)c1O [Hexadecanamide, N-(3,5-dichloro-4-ethyl-2-hydroxyphenyl)-]: mp 78 °C (via eChemPortal)
- COCC(Br)C(=O)NCc1ccccc1 (stereo not given) [2-Bromo-3-methoxy-N-(phenylmethyl)propanamide]: mp 74 °C (via eChemPortal)
- COC(=O)c1sccc1S(N)(=O)=O [Methyl 3-sulfamoylthiophene-2-carboxylate]: mp 121 °C (via OCHEM)
- O=C(O)c1ccc2c(=O)n3c(nc2c1)CCC3: mp 355 °C (via OCHEM)
- O=Cc1cc(Br)c(OCc2ccccc2)c(Br)c1 [4-Benzyloxy-3,5-dibromo-benzaldehyde]: mp 79 °C (via OCHEM)
- CCCSc1nsc(N)n1 [3-(Propylsulfanyl)-1,2,4-thiadiazol-5-amine]: mp 55 °C (via OCHEM)
- COc1cccc(C(=O)NCC(=O)O)c1 [n-(3-methoxybenzoyl)glycine]: mp 79 °C (via OCHEM)
- Cc1ccc(C)c(N2C(=O)C=CC2=O)c1 [1-(2,5-Dimethylphenyl)-1H-pyrrole-2,5-dione]: mp 80 °C (via OCHEM)
- O=C1CCC(C(=O)O)CN1 (stereo not given) [6-oxopiperidine-3-carboxylic acid]: mp 175 °C (via OCHEM)
- CC(=O)c1ccc(S(N)(=O)=O)cc1 [Benzenesulfonamide, p-acetyl- (6CI,7CI,8CI)]: mp 179 °C (via OCHEM)
- O=Cc1sc(N2CCOCC2)nc1-c1ccccc1 [2-(Morpholin-4-yl)-4-phenyl-1,3-thiazole-5-carbaldehyde]: mp 182 °C (via OCHEM)
- O=[N+]([O-])c1ccc(C=NN(c2ccccc2)P(=O)(N2CC2)N2CC2)cc1: mp 150 °C (via OCHEM)

A selection of 4 entries from above:

{"smiles": "O=Cc1cn(-c2ccccc2)nc1-c1cccnc1", "name": "1-Phenyl-3-(pyridin-3-yl)-1H-pyrazole-4-carbaldehyde", "mp (°C)": "111", "via": "OCHEM"}
{"smiles": "O=Cc1sc(N2CCOCC2)nc1-c1ccccc1", "name": "2-(Morpholin-4-yl)-4-phenyl-1,3-thiazole-5-carbaldehyde", "mp (°C)": "182", "via": "OCHEM"}
{"smiles": "COC(=O)c1sccc1S(N)(=O)=O", "name": "Methyl 3-sulfamoylthiophene-2-carboxylate", "mp (°C)": "121", "via": "OCHEM"}
{"smiles": "c1coc(Cc2ccco2)c1", "name": "Furan, 2,2'-methylenebis-", "mp (°C)": "-26", "via": "PubChem"}

Values as listed in the OPERA 2.9 repository of K. Mansouri.